Experimental data as given in patent US20240043403A1, “HETEROARYL CARBOXAMIDE COMPOUND” (Astellas Pharma Inc., priority 2020, published 2024).

Amino acid sequences for entries named in this document (tags omitted).
UniProt Q13574, whole entry: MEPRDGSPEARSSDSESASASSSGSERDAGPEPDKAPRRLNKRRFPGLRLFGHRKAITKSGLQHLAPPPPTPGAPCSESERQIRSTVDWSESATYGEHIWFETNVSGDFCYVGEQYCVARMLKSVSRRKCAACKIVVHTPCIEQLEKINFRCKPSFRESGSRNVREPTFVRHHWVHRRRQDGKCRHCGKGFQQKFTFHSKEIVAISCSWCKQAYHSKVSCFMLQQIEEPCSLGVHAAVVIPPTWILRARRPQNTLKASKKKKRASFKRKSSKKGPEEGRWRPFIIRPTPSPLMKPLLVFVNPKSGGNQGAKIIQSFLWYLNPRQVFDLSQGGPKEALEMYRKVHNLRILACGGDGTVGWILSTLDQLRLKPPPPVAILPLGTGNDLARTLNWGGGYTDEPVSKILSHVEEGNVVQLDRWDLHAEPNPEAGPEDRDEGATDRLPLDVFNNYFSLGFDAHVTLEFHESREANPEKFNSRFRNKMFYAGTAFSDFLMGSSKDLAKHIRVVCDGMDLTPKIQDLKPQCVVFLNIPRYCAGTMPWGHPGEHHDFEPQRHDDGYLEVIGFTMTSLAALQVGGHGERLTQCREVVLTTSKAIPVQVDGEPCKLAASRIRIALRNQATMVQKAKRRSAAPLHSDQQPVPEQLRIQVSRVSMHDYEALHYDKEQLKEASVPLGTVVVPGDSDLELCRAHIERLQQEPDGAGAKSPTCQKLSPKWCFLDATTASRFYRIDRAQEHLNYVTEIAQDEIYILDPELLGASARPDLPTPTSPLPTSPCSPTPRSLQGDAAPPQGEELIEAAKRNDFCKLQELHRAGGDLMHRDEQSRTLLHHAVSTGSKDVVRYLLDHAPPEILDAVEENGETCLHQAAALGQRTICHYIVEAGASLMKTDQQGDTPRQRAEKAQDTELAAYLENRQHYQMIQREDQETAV

Target: human recombinant DGK ξ (Homo sapiens (Human), UniProt Q13574)
Test: Evaluation of DGK ξ inhibitory effect (ADP-Glo Kinase Assay)
Settings: ADP-Glo luminescence
Method: Test Example 1. Evaluation of DGK ξ Inhibitory Effect
The inhibitory effect of a test compound on human recombinant DGK ξ (Cama Biosciences, Inc., 12-410-20N) was examined by the following method in which detection is performed with ADP-Glo™ Kinase Assay (Promega Corporation).
To a 384-well plate (Greiner Bio-One Co., Ltd.), 3 μL of a DGK ξ enzyme dissolved in an assay buffer (40 mM Tris-HCl pH 7.5, 10 mM MgCl2, 1 mM dithiothreitol (DTT) and 0.1 mg/mL bovine serum albumin (BSA)) (90 ng/mL) was added, and 3 μL of the test compound diluted with the same assay buffer was added so that an intended final concentration was obtained. The mixture was left standing at room temperature for 15 minutes, 3 μL of a substrate (150 μM 1-oleoyl-2-acetyl-sn-glycerol (Sigma-Aldrich Co. LLC), 480 μM phosphatidylserine (Avanti, Inc.) and 150 μM UltraPure-ATP (attached to ADP-Glo)) was then added, and the mixture was left standing at room temperature for 30 minutes to react. Thereafter, 3 μL of an ADP-Glo Reagent was added, and the mixture was left standing at room temperature for 40 minutes to stop the enzyme reaction. Further, 6 μL of a Kinase-Detection Reagent was added, the mixture was left standing at room temperature for 30 minutes, and the luminescence was then measured using ARVO X3 (PerkinElmer, Inc.). […]

Structure (SMILES)	IC50
CNC[C@H]1CN(c2c(NC(=O)c3ccn(-c4ccnnc4)n3)ccc(Oc3ccccc3F)c2F)CCN1C	4.9 nM
CN(C)CCOc1cc(-c2c(NC(=O)c3ccn(-c4ccnnc4)n3)ccc(OC3CCC3)c2C(F)(F)F)ccn1	20 nM
